Consider one compound from ChEMBL document CHEMBL1128272, “Stereoselective LSD-like activity in a series of d-lysergic acid amides of (R)- and (S)-2-aminoalkanes” (J Med Chem, 1995).

By UniProt entry, the sequences of proteins in these tests, tags left out.
UniProt P14842, whole entry: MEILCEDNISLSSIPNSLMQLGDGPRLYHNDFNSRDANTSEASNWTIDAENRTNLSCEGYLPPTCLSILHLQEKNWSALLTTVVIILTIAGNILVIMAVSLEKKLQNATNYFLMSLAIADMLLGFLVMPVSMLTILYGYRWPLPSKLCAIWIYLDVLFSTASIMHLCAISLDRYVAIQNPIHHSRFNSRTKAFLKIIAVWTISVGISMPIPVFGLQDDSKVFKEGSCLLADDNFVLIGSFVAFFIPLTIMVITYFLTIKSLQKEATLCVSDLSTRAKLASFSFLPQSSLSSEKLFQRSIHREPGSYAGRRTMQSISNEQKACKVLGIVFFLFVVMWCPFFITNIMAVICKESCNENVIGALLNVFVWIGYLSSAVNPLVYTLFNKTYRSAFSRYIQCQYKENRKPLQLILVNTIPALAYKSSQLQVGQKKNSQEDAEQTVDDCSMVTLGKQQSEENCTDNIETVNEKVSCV

In the assay the target is 5-hydroxytryptamine receptor 2A (Rattus norvegicus, UniProt P14842). As to the kind of experiment: Binding affinity was measured against 5-hydroxytryptamine 2A receptor by displacement of [3H]- ketanserin by lysergic acid amides. In short, it runs like this: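 Rat frontal cortex membranes from pooled male Sprague-Dawley rats, preincubated at 37 °C, in 50 mM Tris HCl (pH 7.4) with 0.5 mM Na2EDTA, 0.1% ascorbate, 10 μM pargyline and 5.7 mM CaCl2. Displacement of 0.75 nM [3H]ketanserin with 200–400 μg protein for 15 min at 37 °C, then GF/C filtration. Triplicates. Three to four experiments combined.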
(Loss of bound radioactivity is the signal in a displacement assay; it reports binding, not function.)

With `CCN(CC)C(=O)[C@@H]1C=C2c3cccc4[nH]cc(c34)C[C@H]2N(C)C1` [LYSERGIDE], the affinity corresponds to a Ki of 4.4 nM.
